How the values were obtained:
Type in all cases: cell-based
[1] = system: 9×SBE-6×OSE2-OC-luc reporter construct in 2T3 C-17 cells; assay: Luciferase assay, 9×SBE-6×OSE2-OC-luc reporter stably transfected in 2T3 clone C-17; set-up: Luciferase Activity: unit not given here; conditions: 24 hours; for Luciferase Activity / Luciferase Activity (fold increase): 2T3 clone 17
Procedure: (§1) An oligonucleotide containing 9 copies of Smad1 response element (9×SBE) and 6 copies of Cbfa1 response element (6×OSE2) was synthesized in the DNA laboratory at University of Texas Health Science Center at San Antonio. The osteocalcin basal promoter (OC, −155/+1) was amplified by Polymerase Chain Reaction (PCR) using mouse genomic DNA as a template and cloned into pGL3 vector. An 9×SBE-6×OSE2 oligonucleotide was cloned upstream of osteocalcin basal promoter.
C2C12 and 2T3 cells were plated in 6-well culture plates at densities of 4×10^5 and 2×10^5 cells/well and cultured with DMEM or α minimal essential medium (α MEM) supplemented with 10% FCS for 24 hours. A 9×SBE-6×OSE2-OC-luc-reporter construct (2 μg/well) was co-transfected with pcDNA3 empty vector (0.2 mg/well) in C2C12 and 2T3 cells using lipofactamine plus reagents (Gibco/BRL). Forty eight hours later, G418 (200 μg/ml) was added to the culture plates. Four weeks after G418 selection, the G418 resistant cells were plated in 96-well plates at the density of 1 cell/well and cloned by limiting dilution method.
(§2) C2C12 and 2T3 cells, in which 9×SBE-6×OSE2-OC-luc-reporter construct was stably transfected, were plated in 96-well culture plates at densities of 1×10^4 and 0.5×10^4 cells/well and cultured for 24 hours. The medium was changed to fresh medium supplemented with 2% FCS and different growth factors or hormone were added to culture medium for 24 hours or different compounds were added to culture medium for 2, 6, 12, 24 and 48 hours. The cell lysates were extracted and luciferase activities were determined by luciferase assay kit (Promega, Madison, Wis.) using a Luminometer.
To determine the effects of BMPs on a 9×SBE-6×OSE2-OC-luc reporter construct, C2C12 clone C-10-62 and 2T3 clone C-17 were treated with different concentrations of BMP-2, BMP-4 and BMP-7 for 24 hours and changes in luciferase activity of this reporter construct were examined. In the assay using 2T3 clone 17, different concentrations of BMP-2 (see Table 1), BMP-4 (see Table 2) and BMP-7 (see Table 3) were added to the medium and cultured for 24 hours. At the end of the incubation, the cell lysates were extracted using lysis buffer and luciferase activities were measured using a luciferase assay kit (Promega).

[2] = system: 9×SBE-6×OSE2-OC-luc reporter construct in C2C12 C-10-62 cells; assay: Luciferase assay, 9×SBE-6×OSE2-OC-luc reporter stably transfected in C2C12 clone C-10-62; conditions: 24 hours
Procedure: as §1
C2C12 and 2T3 cells were plated in 6-well culture plates at densities of 4×10^5 and 2×10^5 cells/well and cultured with DMEM or α minimal essential medium (α MEM) supplemented with 10% FCS for 24 hours. A 9×SBE-6×OSE2-OC-luc-reporter construct (2 μg/well) was co-transfected with pcDNA3 empty vector (0.2 mg/well) in C2C12 and 2T3 cells using lipofactamine plus reagents (Gibco/BRL). Forty eight hours later, G418 (200 μg/ml) was added to the culture plates. […]
C2C12 and 2T3 cells, in which 9×SBE-6×OSE2-OC-luc-reporter construct was stably transfected, were plated in 96-well culture plates at densities of 1×10^4 and 0.5×10^4 cells/well and cultured for 24 hours. […] The cell lysates were extracted and luciferase activities were determined by luciferase assay kit (Promega, Madison, Wis.) using a Luminometer. […]

[3] = system: 9×SBE-OC-pGL3 reporter construct with mutated OSE2 site; assay: OSE2-mutated 9×SBE-OC-pGL3 reporter construct response; conditions: OSE2 site mutated in osteocalcin basal promoter
Text: Further, the OSE2 site was mutated in the osteocalcin basal promoter in 9×SBE-OC-pGL3 reporter construct.

[4] = system: 9×SBE-SV40-luc reporter construct; assay: 9×SBE-SV40-luc reporter construct response
Text: (§3) Multiple copies of a Smad1 response element (9×SBE) were cloned in front of a SV40 basal promoter (9×SBE-SV40-luc) and an osteocalcin basal promoter (9×SBE-OC-luc). […] In contrast, 9×SBE-SV40-luc reporter construct had no response to either BMP-2 treatment or transfection of constitutively active BMPR-IA.

[5] = system: 9×SBE-OC-luc reporter construct in C2C12 cells; assay: 9×SBE-OC-luc reporter construct response in C2C12 cells
Text: as §3

[6] = system: 9×SBE-6×OSE2-OC-luc reporter construct; assay: Luciferase assay, 9×SBE-6×OSE2-OC-luc reporter construct, cells not specified
Text: as §1, §2
Further, a reporter construct which contains multiple copies of both Smad1 (SBE) and Cbfa1 (OSE2) response elements (9×SBE-6×OSE2-OC-luc) was made.

[7] = system: 9×SBE-OC-luc reporter construct in 2T3 cells; assay: 9×SBE-OC-luc reporter construct response in 2T3 cells
Text: as §3

Question: What does the source list for “BMP-2: Bone morphogenetic protein 2, growth factor of the TGF-β superfamily”?
Answer: Effect on luciferase activity of the reporter construct ([1]; 2T3 C-17 cells): stimulated luciferase activity in a dose-dependent manner; Luciferase Activity ([1]; BMP-2 0.39 ng/ml): 0.106; Luciferase Activity (fold increase) ([1]; BMP-2 0.39 ng/ml): 1.6 fold; Luciferase Activity ([1]; BMP-2 0.78 ng/ml): 0.148; Luciferase Activity (fold increase) ([1]; BMP-2 0.78 ng/ml): 2.2 fold; Luciferase Activity ([1]; BMP-2 1.56 ng/ml): 0.200; Luciferase Activity (fold increase) ([1]; BMP-2 1.56 ng/ml): 3.0 fold; Luciferase Activity ([1]; BMP-2 3.125 ng/ml): 0.305; Luciferase Activity (fold increase) ([1]; BMP-2 3.125 ng/ml): 4.6 fold; Luciferase Activity ([1]; BMP-2 6.25 ng/ml): 0.492; Luciferase Activity (fold increase) ([1]; BMP-2 6.25 ng/ml): 7.3 fold; Luciferase Activity ([1]; BMP-2 12.5 ng/ml): 0.761; Luciferase Activity (fold increase) ([1]; BMP-2 12.5 ng/ml): 11.4 fold; Luciferase Activity ([1]; BMP-2 25 ng/ml): 1.235; Luciferase Activity (fold increase) ([1]; BMP-2 25 ng/ml): 18.4 fold; Luciferase Activity ([1]; BMP-2 50 ng/ml): 1.680; Luciferase Activity (fold increase) ([1]; BMP-2 50 ng/ml): 25.1 fold; Luciferase Activity ([1]; BMP-2 100 ng/ml): 2.102; Luciferase Activity (fold increase) ([1]; BMP-2 100 ng/ml): 31.4 fold; Effect on luciferase activity of the reporter construct [2]: stimulated luciferase activity in a dose-dependent manner; Response of OSE2-mutated 9×SBE-OC-pGL3 reporter construct [3]: completely lost its responses; Response of 9×SBE-SV40-luc reporter construct [4]: no response; Response of 9×SBE-OC-luc reporter construct [5]: responded to BMP-2 in a dose-dependent manner; Dose-response and time-course effect on luciferase activity of the reporter construct ([6]; cells not specified): stimulates the luciferase activity of this reporter construct in a dose- and time-dependent manner; Responsiveness to BMP-2 of 9×SBE-6×OSE2-OC-luc relative to 9×SBE-OC-luc ([6]; compared with construct 9×SBE-OC-luc): about 10 fold; Minimal effective dose ([6]; stimulation of luciferase activity, stated for C2C12 C-10-62 and 2T3 C-17 without distinction): 1 to 2 ng/mL; Response of 9×SBE-OC-luc reporter construct [7]: responded to BMP-2 in a dose-dependent manner
